We go through 24 compounds from ChEMBL document CHEMBL6096727, “Structure-Based Rational Design and Evaluation of BET-Aurora Kinase Dual-Inhibitors for Treatment of Cancers” (J Med Chem, 2025).

For assay [1], the target named is T1, Aurora kinase A (Homo sapiens) (UniProt O14965).
T1 sequence (whole entry): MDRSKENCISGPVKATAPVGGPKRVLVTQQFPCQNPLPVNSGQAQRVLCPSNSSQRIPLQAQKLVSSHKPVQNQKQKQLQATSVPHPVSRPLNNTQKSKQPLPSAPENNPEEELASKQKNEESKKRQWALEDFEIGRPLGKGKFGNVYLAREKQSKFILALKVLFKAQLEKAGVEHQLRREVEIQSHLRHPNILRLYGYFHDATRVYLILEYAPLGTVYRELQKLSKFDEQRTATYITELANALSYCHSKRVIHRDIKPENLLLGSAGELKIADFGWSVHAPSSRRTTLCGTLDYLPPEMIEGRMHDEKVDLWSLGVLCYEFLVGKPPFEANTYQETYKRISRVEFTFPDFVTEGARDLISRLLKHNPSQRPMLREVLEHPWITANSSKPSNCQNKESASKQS
As to conditions: dose 111.0 nM.

In assay [2] the target is T1, Aurora kinase A (Homo sapiens). As to conditions: dose 333.0 nM.

For `Cc1nn(C)c(C2CC2)c1-c1ccnc(Nc2ccc3c(c2)N(C(C)C)[C@H](C)C(=O)N3C)n1`, in assay [1], the inhibition (in general, the relative decrease from the control value, in per cent) is 24%.

With `Cc1c(-c2ccnc(Nc3ccc4c(n3)N(C(C)C)[C@H](C)C(=O)N4C)n2)c(C2CC2)nn1C`, in assay [1], the inhibition was found to be 11%.

For the compound `Cc1c(-c2ccnc(Nc3ccc4c(c3)N(C3CCC3)[C@H](C)C(=O)N4C)n2)c(C2CC2)nn1C`, the inhibition in assay [1] turned out to be 34%.

For the compound `CC(C)N1c2cc(Nc3nccc(Nc4cc(C(C)(C)C)n[nH]4)n3)ccc2N(C)C(=O)[C@H]1C`, the inhibition is 10% in assay [2] and -7% in assay [1].

For `Cc1nn(-c2ccccc2)cc1-c1ccnc(Nc2ccc3c(c2)N(C(C)C)[C@H](C)C(=O)N3C)n1`, the inhibition in assay [1] amounted to 5.3%.

Turning to `Cc1cnc(Nc2ccc3c(c2)N(C(C)C)[C@H](C)C(=O)N3C)nc1-c1c(C2CC2)nn(C)c1C`, the inhibition in assay [1] was found to be 27%.

In the case of `Cc1cc(Nc2ccnc(Nc3ccc4c(c3)N(C(C)C)[C@H](C)C(=O)N4C)n2)n(-c2ccccc2)n1`, the inhibition in assay [2] is 9%; in assay [1], -4.4%.

As to `Cc1cc(Nc2ccnc(Nc3ccc4c(c3)N(C(C)C)[C@H](C)C(=O)N4C)n2)n(C(C)C)n1`, the results for the inhibition in assay [2] and in assay [1] were 38% and 6.1%, respectively.

As to `CC(C)N1c2cc(Nc3nccc(-c4c[nH]nc4-c4ccccc4)n3)ccc2N(C)C(=O)[C@H]1C`, the inhibition in assay [2] was 38%; in assay [1] it was 11%.

`CC(C)N1c2cc(Nc3nccc(Nc4cc(C5CC5)nn4C)n3)ccc2N(C)C(=O)[C@H]1C`: the inhibition in assay [2] is 29%; in assay [1], 1.2%.

Regarding `CC(C)N1c2cc(Nc3nccc(-c4c[nH]nc4C4CCCCC4)n3)ccc2N(C)C(=O)[C@H]1C`, the inhibition in assay [2] is 46%; in assay [1] it was 12%.

Take `Cc1cc(-c2ccnc(Nc3ccc4c(c3)N(C(C)C)[C@H](C)C(=O)N4C)n2)n(C)n1`: the inhibition in assay [2] was 26%; in assay [1], 0%.

Consider `Cc1cnn(C)c1-c1ccnc(Nc2ccc3c(c2)N(C(C)C)[C@H](C)C(=O)N3C)n1`, for which the figures for the inhibition in assay [2] and in assay [1] were 36% and 9%, respectively.

Regarding `CC(C)N1c2cc(Nc3nccc(-c4ccn(C)n4)n3)ccc2N(C)C(=O)[C@H]1C`, the inhibition was 18% in assay [2] and -4.2% in assay [1].

Turning to `Cc1cc(Nc2ccnc(Nc3ccc4c(c3)N(C(C)C)[C@H](C)C(=O)N4C)n2)n(C(C)(C)C)n1`, the values for the inhibition in assay [2] and in assay [1] were 7.6% and 19%, respectively.

For the compound `CC(C)N1c2cc(Nc3nccc(-c4ccnn4C)n3)ccc2N(C)C(=O)[C@H]1C`, the inhibition in assay [2] came to 24%; in assay [1], 22%.

Turning to `CCn1nccc1-c1ccnc(Nc2ccc3c(c2)N(C(C)C)[C@H](C)C(=O)N3C)n1`, the values for the inhibition in assay [2] and in assay [1] were 36% and 4.8%, respectively.

In the case of `Cc1cc(Nc2ccnc(Nc3ccc4c(c3)N(C(C)C)[C@H](C)C(=O)N4C)n2)n(C)n1`, the results for the inhibition in assay [2] and in assay [1] were 28% and 2.1%, respectively.

For `CC(C)N1c2cc(Nc3nccc(-c4cc[nH]n4)n3)ccc2N(C)C(=O)[C@H]1C`, the inhibition in assay [2] turned out to be 53%; in assay [1] it was 23%.

On to `CC(C)N1c2cc(Nc3nccc(-c4cn[nH]c4)n3)ccc2N(C)C(=O)[C@H]1C`, for which the results for the inhibition in assay [2] and in assay [1] were 50% and 19%, respectively.

As to `CC(C)N1c2cc(Nc3nccc(-c4ccnn4C(C)C)n3)ccc2N(C)C(=O)[C@H]1C`, the inhibition in assay [2] turned out to be 34%; in assay [1] it was 5.8%.

As for `CC(C)N1c2cc(Nc3nccc(Nc4cc(-c5ccccc5)nn4C)n3)ccc2N(C)C(=O)[C@H]1C`, the inhibition in assay [2] is -3.9%.

For `Cc1c(-c2ccnc(Nc3ccc4c(c3)N(C3CCCC3)[C@H](C)C(=O)N4C)n2)c(C2CC2)nn1C`, in assay [1], the inhibition worked out at 29%.

In the case of `CC(C)N1c2cc(Nc3nccc(Nc4cc(C(C)(C)C)nn4C)n3)ccc2N(C)C(=O)[C@H]1C`, the results for the inhibition in assay [2] and in assay [1] were 4.6% and 20%, respectively.
